Measurements from patent US8618101B2.

The chains behind the UniProt entries cited, without tags or fusion partners.
UniProt P41597, whole entry: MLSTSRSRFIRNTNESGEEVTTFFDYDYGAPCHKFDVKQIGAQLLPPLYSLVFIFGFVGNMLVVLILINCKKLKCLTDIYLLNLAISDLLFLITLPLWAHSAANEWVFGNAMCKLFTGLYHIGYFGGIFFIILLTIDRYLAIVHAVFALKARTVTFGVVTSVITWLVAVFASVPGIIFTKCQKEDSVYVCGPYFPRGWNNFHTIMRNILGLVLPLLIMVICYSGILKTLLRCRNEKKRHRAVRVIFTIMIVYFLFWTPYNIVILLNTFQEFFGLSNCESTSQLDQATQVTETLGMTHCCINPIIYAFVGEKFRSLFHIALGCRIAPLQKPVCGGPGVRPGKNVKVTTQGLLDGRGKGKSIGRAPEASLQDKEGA
UniProt P51681, whole entry: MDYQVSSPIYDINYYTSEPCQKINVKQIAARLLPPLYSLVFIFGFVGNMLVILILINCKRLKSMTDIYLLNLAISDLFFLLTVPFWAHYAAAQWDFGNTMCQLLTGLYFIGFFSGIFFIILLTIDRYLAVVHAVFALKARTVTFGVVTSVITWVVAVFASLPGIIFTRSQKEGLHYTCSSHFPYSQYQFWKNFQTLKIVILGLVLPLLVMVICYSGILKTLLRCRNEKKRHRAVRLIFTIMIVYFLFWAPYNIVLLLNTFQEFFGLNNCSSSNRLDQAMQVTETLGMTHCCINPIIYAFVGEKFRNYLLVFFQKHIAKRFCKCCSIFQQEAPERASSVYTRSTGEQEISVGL
UniProt Q12809, whole entry: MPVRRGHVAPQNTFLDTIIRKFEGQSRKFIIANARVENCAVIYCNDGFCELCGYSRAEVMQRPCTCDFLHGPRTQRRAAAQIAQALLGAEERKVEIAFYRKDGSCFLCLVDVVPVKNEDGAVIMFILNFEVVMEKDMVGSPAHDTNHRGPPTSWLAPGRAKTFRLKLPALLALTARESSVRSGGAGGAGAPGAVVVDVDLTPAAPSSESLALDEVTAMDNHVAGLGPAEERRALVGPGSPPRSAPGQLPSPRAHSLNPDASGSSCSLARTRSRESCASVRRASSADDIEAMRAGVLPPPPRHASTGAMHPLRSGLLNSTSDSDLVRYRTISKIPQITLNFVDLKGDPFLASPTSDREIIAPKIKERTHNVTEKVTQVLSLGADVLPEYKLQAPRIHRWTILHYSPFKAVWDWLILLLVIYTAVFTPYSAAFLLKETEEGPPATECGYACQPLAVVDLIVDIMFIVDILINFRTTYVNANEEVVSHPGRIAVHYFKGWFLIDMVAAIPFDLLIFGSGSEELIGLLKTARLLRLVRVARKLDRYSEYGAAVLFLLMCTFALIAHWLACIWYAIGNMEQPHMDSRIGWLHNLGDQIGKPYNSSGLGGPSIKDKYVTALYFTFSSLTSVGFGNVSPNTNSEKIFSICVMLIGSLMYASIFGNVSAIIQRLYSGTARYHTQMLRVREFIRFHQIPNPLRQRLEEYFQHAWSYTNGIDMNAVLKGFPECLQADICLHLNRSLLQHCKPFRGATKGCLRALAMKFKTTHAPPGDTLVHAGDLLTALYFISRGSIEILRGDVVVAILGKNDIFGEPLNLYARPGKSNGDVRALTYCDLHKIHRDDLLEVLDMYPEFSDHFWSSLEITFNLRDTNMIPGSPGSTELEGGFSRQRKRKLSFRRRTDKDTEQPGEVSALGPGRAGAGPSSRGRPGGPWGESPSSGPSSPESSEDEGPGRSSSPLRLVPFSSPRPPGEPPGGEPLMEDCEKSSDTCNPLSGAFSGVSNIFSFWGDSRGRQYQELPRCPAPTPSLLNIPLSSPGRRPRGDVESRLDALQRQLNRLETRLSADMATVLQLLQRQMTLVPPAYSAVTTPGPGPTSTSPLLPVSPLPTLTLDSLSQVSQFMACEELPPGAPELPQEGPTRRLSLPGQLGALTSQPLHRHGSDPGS

Columns and labels:
CCR-2 = CCR-2 (Homo sapiens, UniProt P41597); test: CCR-2 whole blood integrin (CD11b) upregulation; assay type: cell-based; conditions: comparison of CCR-2 and CCR-5 CD11b IC50
CCR-5 [1] = target: T1, CCR-5 (Homo sapiens, UniProt P51681); test: CCR-5 calcium mobilization, HT1080/CCR-5 cells; assay type: cell-based; conditions: read-out: CCR-5 ^2+ Flux IC50, MIP-1β 50 nM
[2] = Single-dose pharmacokinetics in monkeys; assay type: in vivo, cynomolgus monkey; conditions: monkey
[3] = Single-dose pharmacokinetics in rats; conditions: rat
CCR-5 [4] = target: T1, CCR-5; test: CCR-5 GTP-γS exchange, CCR-5/HT1080 membranes; assay type: biochemical; conditions: read-out: CCR-5 GTP-γS IC50; MIP-1α/LD78β ligand
hERG = hERG (Homo sapiens, UniProt Q12809); test: hERG Flux (Tl+ flux, FLIPR); assay type: cell-based; conditions: read-out: hERG FLUX IC50; HEK293 cells expressing hERG
[5] = dose IV/PO 1/11 mg/kg, tested form: TFA
[6] = dose IV/PO 6/72 mg/kg, tested form: TFA

SMILES: CC(=O)N[C@@H]1C[C@H](N(C)C(C)C)CC[C@@H]1N1CC[C@H](Nc2ncnc3ccc(C(F)(F)F)cc23)C1=O
- activity against CCR-2 versus CCR-5 (Table 5) (CCR-2): predominantly active against CCR-2
- IC50 (CCR-5 [1]): 24 nM
- Oral AUC ([2]; dose IV/PO 1/1.3 mg/kg): 0.836 µM·h
- Oral AUC ([3]; dose IV/PO 2/10 mg/kg): 3.794 µM·h
- IC50 (CCR-5 [4]): 111 nM

SMILES: CCC[C@@H]1C[C@H](N(C)C(C)C)CC[C@@H]1N1CC[C@H](Nc2ncnc3ccc(C(F)(F)F)cc23)C1=O
- Oral AUC ([2]; dose IV/PO 1/[…]): 0.862 µM·h
- Cl ([3]; dose IV/PO 2.5/25 mg/kg): 40 mL/min/kg
- Oral AUC ([3]; dose IV/PO 2.5/25 mg/kg): 9.294 µM·h

SMILES: CC(C)N(C)[C@@H]1CC[C@H](N2CC[C@H](NC(=O)c3cccc(C(F)(F)F)c3)C2=O)[C@H](CS(C)(=O)=O)C1
- F % [2, 5]: 9.4%
- Oral AUC [2, 5]: 1.896 µM·h
- F % [3, 6]: 1.4%
- Oral AUC [3, 6]: 0.69 µM·h

SMILES: CC(C)N(C)[C@@H]1CC[C@H](N2CC[C@H](NC(=O)c3cccc(C(F)(F)F)c3)C2=O)[C@H](CS(=O)(=O)C(C)(C)C)C1
- Oral AUC ([2]; dose IV/PO 1/10 mg/kg, tested form: TFA): 6.763 µM·h
- Oral AUC ([3]; dose IV/PO 4/43 mg/kg, tested form: TFA): 1.855 µM·h

SMILES: CC(=O)N[C@@H]1C[C@H](NC(C)(C)C)CC[C@@H]1N1CC[C@H](Nc2ncnc3ccc(C(F)(F)F)cc23)C1=O
- activity against CCR-2 versus CCR-5 (Table 5) (CCR-2): predominantly active against CCR-2
- IC50 (hERG): > 80000 nM
- Oral AUC ([3]; dose IV/PO 2/10 mg/kg): 10.169 µM·h
